Laboratory results published in patent publication US20220194983A1, “PEPTIDE LIGANDS FOR BINDING TO PSMA” (BicycleTx Limited, priority 2018, published 2022).

Chains of the proteins cited; added tags and fusions are not shown.
UniProt Q04609, whole entry: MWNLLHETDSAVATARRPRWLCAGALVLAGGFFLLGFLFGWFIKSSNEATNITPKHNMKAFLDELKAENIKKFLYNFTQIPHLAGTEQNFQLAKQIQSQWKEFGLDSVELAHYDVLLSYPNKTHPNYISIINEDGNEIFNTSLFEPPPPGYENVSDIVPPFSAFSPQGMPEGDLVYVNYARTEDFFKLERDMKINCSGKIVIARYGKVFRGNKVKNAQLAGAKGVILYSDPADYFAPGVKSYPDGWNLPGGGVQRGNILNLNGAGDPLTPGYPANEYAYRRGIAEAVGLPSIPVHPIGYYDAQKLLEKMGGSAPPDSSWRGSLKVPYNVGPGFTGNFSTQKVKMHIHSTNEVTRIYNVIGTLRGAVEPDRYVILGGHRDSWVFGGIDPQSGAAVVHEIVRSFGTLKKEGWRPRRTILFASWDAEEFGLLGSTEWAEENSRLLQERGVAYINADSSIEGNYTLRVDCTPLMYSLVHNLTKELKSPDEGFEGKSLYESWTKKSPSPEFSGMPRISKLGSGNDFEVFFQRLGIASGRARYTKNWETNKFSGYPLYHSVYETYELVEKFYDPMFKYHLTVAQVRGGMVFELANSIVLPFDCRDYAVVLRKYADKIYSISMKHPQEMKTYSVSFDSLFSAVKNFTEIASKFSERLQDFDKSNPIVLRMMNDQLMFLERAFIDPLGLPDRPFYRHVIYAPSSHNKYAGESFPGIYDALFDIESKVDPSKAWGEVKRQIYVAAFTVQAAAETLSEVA

The substances below were run against T1, PSMA (Homo sapiens, UniProt Q04609) (assay: PSMA binding, fluorescence polarization assay). Conditions: read-out: measured affinity (Ki) to PSMA.
Experimental: (§1) PSMA binding was measured using the fluorescence polarization assay methodology described in Shen et al (2013) PLOS ONE 8(7), e68339 and PSMA enzyme inhibition was measured using the methodology described in WO 2009/070302.

| Substance | Ki [nM] |
| --- | --- |
| EV[Dap(Me)]WDCFMMEDGT[Dap(Me)]A [21-31-04-T01-N018] | 18.9 |
| EVCWDCFMMEDGTCA [21-31-04-T01-N001] | 3 |
| EVCWD[Dap(Me)]FMMEDGT[Dap(Me)]A [21-31-04-T01-N017] | 700 |
| EV[Dap(Me)]WD[Dap(Me)]FMMEDGTCA [21-31-04-T01-N016] | 44.3 |

Same assay, conditions: reference thioether TBMB peptide ligands; evaluated as in earlier application GB201720940.4; read-out: FP (h) ki

| Substance | Ki [nM] |
| --- | --- |
| LCMECYMMEDGTCA [A18] | 7.6 |
| Ac-(D-E)VCWDCF(Nle)(Nle)EDGTCA-Sar6-K [A11] | 38.5 |
| CEECFRLEDGTCA [A6] | 36.5 |
| (B-Ala)-Sar5-EVCWDCFMMEDGTC [A9] | 163 |
| Ac-CMVCHMMEDGTCA-Sar6-K [A21] | 384 |
| EVCWDCFMMEDGTCA [21-31-04-T01-N001] | 2.2 |
| (B-Ala)-Sar5-VCLECNMMEDGTC [A20] | 512 |
| (D-E)VCWDCFMMEDGTCA-Sar6-K [A8] | 25.8 |
| Ac-(D-E)VCWDCFMMEDGTCA-Sar6-K(Ac) [A10] | 18.3 |
| SVCRECYMMEDGTCA [A16] | 13 |
| Ac-C(Nle)VCH(Nle)(Nle)EDGTCA-Sar6-K [A23] | 296 |
| FCSECYMMEDGTCA [A17] | 6 |
| ACMVCHMMEDGTCAGASPAAPSAPP [A3] | 95.5 |
| Ac-(D-E)VCWDCFMMEDGTCA-Sar6-(D-K) [A12] | 30 |
| CIECYIMEDGTCA [A4] | 70 |
| (B-Ala)-Sar5-ACMVCHMMEDGTC [A22] | 596 |
| Ac-(D-E)VCWDCF(Nle)MEDGTCA-Sar6-(D-K) [A13] | 82 |
| Ac-CMVCHMMEDGTC [A2] | 182 |
| ACMVCHMMEDGTCA [A1] | 40 |
| Ac-(D-E)VCWDCFM(Nle)EDGTCA-Sar6-(D-K) [A14] | 5.1 |
| (D-V)CLECNMMEDGTCA-Sar6-K [A19] | 1490 |
| CEECLTLEDGTCA [A5] | 28 |
| Ac-(D-E)VCWDCF(Nle)(Nle)EDGTCA-Sar6-(D-K) [A15] | 55 |

The substances below were run against T1, PSMA (assay: PSMA enzyme inhibition assay). Conditions: reference thioether TBMB peptide ligands; evaluated as in earlier application GB201720940.4.
Assay type: biochemical
Experimental: as §1

| Substance | IC50 [nM] |
| --- | --- |
| ACMVCHMMEDGTCA [A1] | 695 |

The substances below were run against T1, PSMA (assay: measured PSMA affinities (ka, kd, KD) of Dap(Me) substituted bicycles, Table 1). Conditions: not given.
Assay type: binding

| Substance | Kd |
| --- | --- |
| [Glutarate][dE]V[Dap(Me)]WDCF[Nle][Nle]EDGT[Dap(Me)]A [BCY00009313] | 78.8 nM |
| [Ac][dE]V[Dap(Me)]WDCF[Nle][tBuAla]EDGT[Dap(Me)]A [BCY00009311] | 124 nM |
| [Ac][dE]V[Dap(Me)]KDCF[Nle][Nle]EDGT[Dap(Me)]A [BCY00009314] | 1020 nM and 1140 nM |
| [Ac][dE]V[Dap(Me)]WDCF[Nle][Nle]EDGT[Dap(Me)]A [BCY00009300] | 145 nM |
| [Ac][dE]V[Dap(Me)]WDCF[Nle]LEDGT[Dap(Me)]A [BCY00009310] | 728 nM and 734 nM |
| [Ac][dE]V[Dap(Me)]WDCFY[Nle]EDGT[Dap(Me)]A [BCY00009308] | 330 nM and 441 nM |
| [Ac][dE]V[Dap(Me)]WDCK[Nle][Nle]EDGT[Dap(Me)]A [BCY00009315] | 1640 nM |
| [Ac][dE]V[Dap(Me)]WDCF[Hse(Me)][Nle]EDGT[Dap(Me)]A [BCY00009305] | 1240 nM and 1580 nM |
| [Ac][dE]V[Dap(Me)]WDCY[Nle][Nle]EDGT[Dap(Me)]A [BCY00009304] | 120 nM and 214 nM |
| [Ac][dE]V[Dap(Me)]WDCF[tBuAla][Nle]EDGT[Dap(Me)]A [BCY00009307] | 486 nM and 658 nM |
| [Ac][dE]V[Dap(Me)][2Nal]DCF[Nle][Nle]EDGT[Dap(Me)]A [BCY00009303] | 213 nM and 317 nM |
| [Ac][dE]V[Dap(Me)]WDCF[Nle][Hse(Me)]EDGT[Dap(Me)]A [BCY00009309] | 5660 nM and 5970 nM |
| [Ac][dE]V[Dap(Me)]WDCFL[Nle]EDGT[Dap(Me)]A [BCY00009306] | 218 nM and 381 nM |

“And” between values parts separate entries of the source, which are not always exact repeats. Identical values can stand only once.
